In one data set the test system is Sheep. Briefly: Toxicity in Sheep. As to conditions: for Number dead/total / Symptoms Observed in Survivors: sheep.
For another data set, the system named is Swine. Briefly: Toxicity Study in Swine. As to conditions: 5 pigs.
A further data set has as its system dogs. The data set can be described thus: Toxicity in dogs.
[1] abbreviates: SOD 250 mg/kg, values marked *: died 5-6 days after administration, esophageal puncture not related to medication.

From patent US4239708A, “P-Phenylene bis[imino(thiocarbonyl)] diphosphoramidic acid esters as anthelmentic agents” (dated 1980) come the findings set out here.

For the compound `CCOP(=O)(NC(=S)Nc1ccc(NC(=S)NP(=O)(OCC)OCC)c(Cl)c1)OCC`, the Number dead/total in the data set with Sheep (SOD 100 mg/kg) is given as 0/1; in the data set with Sheep (SOD 200 mg/kg) it was 0/2. In addition, in the data set with Sheep (SOD 100 and 200 mg/kg), the “Symptoms Observed in Survivors” value is “No obvious symptoms”. The entries for the “Death (No. of Pigs)” value with Swine (SOD 150 mg/kg), in the data set with Swine (SOD 200 mg/kg) and in the data set on Swine (setting [1]) were 0, 1 and 1, respectively. Besides, the “No. of Pigs with Toxic Symptoms” value was 5 in the data set on Swine (SOD 150 mg/kg), 3 in the data set with Swine (SOD 200 mg/kg) and 5 in the data set with Swine (SOD 250 mg/kg). In addition, the “Number of Dogs Showing Adverse Symptoms/total treated: *Severe Toxicity” value in the data set with dogs (SOD 25 mg/kg), with dogs (SOD 50 mg/kg) and in the data set with dogs (SOD 75 mg/kg) was 0/3 throughout. Also, the entries for the “Number of Dogs Showing Adverse Symptoms/total treated: Transient Anorexia” value in the data set with dogs (SOD 25 mg/kg), in the data set with dogs (SOD 50 mg/kg) and in the data set on dogs (SOD 75 mg/kg) were 1/3, 0/3 and 2/3, respectively. Also, the “Number of Dogs Showing Adverse Symptoms/total treated: Transient Emesis” value is reported as 1/3 with dogs (SOD 25 mg/kg), 0/3 in the data set with dogs (SOD 50 mg/kg) and 2/3 in the data set with dogs (SOD 75 mg/kg).
Turning to `CCOP(=O)(NC(=S)Nc1ccc(NC(=S)NP(=O)(OCC)OCC)c(OC)c1)OCC`, the “Death (No. of Pigs)” value in the data set with Swine (SOD 150 mg/kg) turned out to be 0; with Swine (SOD 200 mg/kg) it was 0; with Swine (setting [1]), 2. Moreover, the “No. of Pigs with Toxic Symptoms” value with Swine (SOD 150 mg/kg) is given as 0; in the data set with Swine (SOD 200 mg/kg), 5; with Swine (SOD 250 mg/kg), 5. For the same compound, the “Number of Dogs Showing Adverse Symptoms/total treated: *Severe Toxicity” value in the data set on dogs (SOD 25 mg/kg), in the data set with dogs (SOD 50 mg/kg) and in the data set with dogs (SOD 75 mg/kg) was 0/3 each time. The “Number of Dogs Showing Adverse Symptoms/total treated: Transient Anorexia” value is reported as 0/3 in the data set with dogs (SOD 25 mg/kg), 3/3 with dogs (SOD 50 mg/kg) and 1/3 with dogs (SOD 75 mg/kg). Further, the “Number of Dogs Showing Adverse Symptoms/total treated: Transient Emesis” value in the data set with dogs (SOD 25 mg/kg) is on record as 1/3; in the data set with dogs (SOD 50 mg/kg), 1/3; in the data set with dogs (SOD 75 mg/kg), 0/3.
Take `CCOP(=O)(NC(=S)Nc1ccc(Cl)cc1NC(=S)NP(=O)(OCC)OCC)OCC`: the “symptoms persisted after dosing” value in the data set with Sheep (sheep survivors, SOD 150 mg/kg) was 4 days. The Number dead/total in the data set with Sheep (SOD 100 mg/kg) is reported as 0/2; in the data set on Sheep (SOD 150 mg/kg) it was 1/2; with Sheep (SOD 200 mg/kg) it was 2/2. Further, in the data set with Sheep (SOD 100 mg/kg), the “Symptoms Observed in Survivors” value is given as “No obvious symptoms”.
Turning to `CCOP(=O)(NC(=S)Nc1ccccc1NC(=S)NP(=O)(OCC)OCC)OCC`, the symptoms persisted in the data set on Sheep (sheep survivors, SOD 50 and 100 mg/kg) is on record as 9 days. Also, the Number dead/total with Sheep (SOD 50 mg/kg) and in the data set with Sheep (SOD 100 mg/kg) was 1/2 throughout. In the data set with Sheep (SOD 50 and 100 mg/kg), the “Symptoms Observed in Survivors” value is “Salivation, rigidity, malaise, anorexia”. Moreover, the “Death (No. of Pigs)” value in the data set on Swine (SOD 50 mg/kg) was 1; with Swine (SOD 100 mg/kg), 0; in the data set on Swine (SOD 150 mg/kg), 4. Moreover, the “No. of Pigs with Toxic Symptoms” value in the data set on Swine (SOD 50 mg/kg), in the data set on Swine (SOD 100 mg/kg) and in the data set with Swine (SOD 150 mg/kg) was 5 throughout. The “Number of Dogs Showing Adverse Symptoms/total treated: *Severe Toxicity” value was 0/5 in the data set on dogs (SOD 25 mg/kg), 1/5 in the data set with dogs (SOD 50 mg/kg) and 1/3 in the data set with dogs (SOD 75 mg/kg). The “Number of Dogs Showing Adverse Symptoms/total treated: Transient Anorexia” value in the data set with dogs (SOD 25 mg/kg) is 0/5; with dogs (SOD 50 mg/kg), 2/5; in the data set on dogs (SOD 75 mg/kg), 2/3. Also, the “Number of Dogs Showing Adverse Symptoms/total treated: Transient Emesis” value is on record as 3/5 in the data set on dogs (SOD 25 mg/kg), 1/5 in the data set on dogs (SOD 50 mg/kg) and 2/3 in the data set with dogs (SOD 75 mg/kg).
